# Target: V349I murine COX-2 (muCOX-2) (Mus musculus, UniProt Q05769, V335I/N580A)
# Protein sequences, listed by entry. Tags and fused reporters are not part of them. Residues count along the entry.
# UniProt Q05769, 18-604 V335I/N580A: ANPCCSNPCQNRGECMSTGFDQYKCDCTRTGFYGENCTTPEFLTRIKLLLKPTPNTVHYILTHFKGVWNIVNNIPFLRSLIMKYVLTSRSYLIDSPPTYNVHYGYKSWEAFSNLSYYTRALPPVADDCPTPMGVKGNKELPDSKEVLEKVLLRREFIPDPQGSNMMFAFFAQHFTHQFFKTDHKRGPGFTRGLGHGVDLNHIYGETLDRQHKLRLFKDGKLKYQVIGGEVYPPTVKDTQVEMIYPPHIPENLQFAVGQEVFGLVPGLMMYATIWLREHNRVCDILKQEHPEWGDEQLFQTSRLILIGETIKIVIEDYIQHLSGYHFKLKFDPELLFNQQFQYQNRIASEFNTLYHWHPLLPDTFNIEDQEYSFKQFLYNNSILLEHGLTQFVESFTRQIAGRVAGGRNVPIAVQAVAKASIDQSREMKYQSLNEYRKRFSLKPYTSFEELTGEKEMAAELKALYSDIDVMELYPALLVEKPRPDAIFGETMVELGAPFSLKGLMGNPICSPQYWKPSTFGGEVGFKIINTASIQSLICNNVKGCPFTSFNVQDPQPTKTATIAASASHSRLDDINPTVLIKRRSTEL
structure (smiles),measurement,value
"CCCCC/C=C\C/C=C\C/C=C\C/C=C\CCCC(=O)O [AA, 5Z, 8Z, 11Z, 14Z-eicosatetraenoic acid]","X-ray crystal structure, 2.2 Å",Clear electron density was observed for AA bound within the cyclooxygenase channel of each monomer of the V349I:AA crystal structure.
